The text below walks through data of ChEMBL document CHEMBL1131500, “Novel biologically active nonpeptidic inhibitors of myristoylCoA:protein N-myristoyltransferase” (J Med Chem, 1998).

The target of the experiment is T1, Glycylpeptide N-tetradecanoyltransferase (Candida albicans (strain SC5314 / ATCC MYA-2876) (Yeast), UniProt P30418).
T1 sequence (P30418 whole entry): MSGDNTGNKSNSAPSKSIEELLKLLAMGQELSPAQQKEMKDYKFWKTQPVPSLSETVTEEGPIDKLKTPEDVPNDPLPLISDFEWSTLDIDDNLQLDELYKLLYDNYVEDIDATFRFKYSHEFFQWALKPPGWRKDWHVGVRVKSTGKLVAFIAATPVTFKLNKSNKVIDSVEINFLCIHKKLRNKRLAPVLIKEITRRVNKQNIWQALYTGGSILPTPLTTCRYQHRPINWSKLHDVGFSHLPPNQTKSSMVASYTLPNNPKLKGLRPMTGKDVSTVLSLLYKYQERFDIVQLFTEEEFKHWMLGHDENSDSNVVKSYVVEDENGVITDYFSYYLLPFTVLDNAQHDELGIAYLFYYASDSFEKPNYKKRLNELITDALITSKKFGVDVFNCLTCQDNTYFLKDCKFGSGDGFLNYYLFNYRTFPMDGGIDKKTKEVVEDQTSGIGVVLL
Briefly: The Compound was tested for the inhibition potency against Candida albicans N-myristoyltransferase (NMT) and reported as apparent Ki.

For `Cc1nccn1CCCCc1ccc(CC(=O)N[C@@H](CO)C(=O)N[C@@H](CCCCN)C(=O)NCCC2CCCCC2)cc1` [SC-58272], the Ki is 0.031 app.
